Source: the NIST ThermoML archive (doi:10.1021/je900665a)

Details: Capillary rise

CCCCOCCCC [dibutyl ether]
Details | surface tension liquid-gas [mN/m]
263.17 K | 25.79
268.18 K | 25.35
273.18 K | 24.84
278.19 K | 24.39
283.2 K | 23.89
288.19 K | 23.58
293.18 K | 23.05
298.11 K | 22.59
303.17 K | 22.22
308.05 K | 21.73
313.18 K | 21.25
318.13 K | 20.68
323.2 K | 20.26
328.2 K | 19.76
333.18 K | 19.41
338.18 K | 18.82
343.17 K | 18.33
348.18 K | 17.87
353.17 K | 17.47
358.18 K | 16.96
363.19 K | 16.54
368.19 K | 16.09
373.17 K | 15.5
